The values below come from patent publication US9422396B2, “Biodegradable elastomers prepared by the condensation of an organic di-, tri- or tetra-carboxylic acid and an organic diol” (QATAR UNIVERSITY, priority 2007, dated 2016).

The data set is described as follows: Sol content and degree of swelling of elastomer discs in dichloromethane. It counts as physicochemical.

Take “poly(1,10 decane diol-co-tricarballylate) [PDTC]”: the “The sol content (S) %” value is recorded as 5.95 ± 1.69%.
